Experimental findings from ChEMBL document CHEMBL5113485, “Distal kinetic deuterium isotope effect: Phenyl ring deuteration attenuates N-demethylation of Lu AF35700” (Bioorg Med Chem Lett, 2022) are described below.

Sequences of proteins named here, by UniProt entry; tags and fusion partners are left off.
UniProt P14416, whole entry: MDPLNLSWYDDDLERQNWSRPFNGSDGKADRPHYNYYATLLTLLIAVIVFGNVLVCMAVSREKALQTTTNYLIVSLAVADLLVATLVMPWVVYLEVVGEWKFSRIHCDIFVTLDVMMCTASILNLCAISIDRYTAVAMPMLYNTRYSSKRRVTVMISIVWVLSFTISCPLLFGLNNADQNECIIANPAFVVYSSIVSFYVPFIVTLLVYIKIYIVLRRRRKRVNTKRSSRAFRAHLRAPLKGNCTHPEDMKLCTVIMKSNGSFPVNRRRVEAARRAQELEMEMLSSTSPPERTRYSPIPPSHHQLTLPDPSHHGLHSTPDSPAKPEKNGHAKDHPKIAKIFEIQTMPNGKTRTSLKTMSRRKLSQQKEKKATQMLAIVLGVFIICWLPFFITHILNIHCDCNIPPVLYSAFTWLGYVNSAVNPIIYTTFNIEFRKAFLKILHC

This experiment addresses D(2) dopamine receptor (Homo sapiens, UniProt P14416). The experiment in a line: Displacement of [3H]7-OH-DPAT from recombinant human D2S receptor measured after 60 mins by scintillation counting analysis.

`[2H]c1c([2H])c([2H])c([C@@H]2C[C@@H](N3CCN(C([2H])([2H])[2H])C(C)(C)C3)c3cc(Cl)ccc32)c([2H])c1[2H]`: the Ki was 4.1 nM.
